# GIV-Gai inh: GIV-Galpha-i interaction inhibition. 210,000 compounds, 0.42% hits. percent of control (FP), % (no concentration beside the values). Galpha-i3/FITC-GIV peptide fluorescence polarization, 90 min; active compounds read low; scaled: aluminum fluoride 0%, vehicle 100%. AID 1224905. P08753;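 active = replicate mean at 85% of control or lower, very high polarization wells dropped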;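 note: wells of about 15 µL received 100 nL stock; the first replicate is given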
# GIV Gai FP conf: inhibitors of GIV peptide binding to Galpha-i3, confirmation, biochemical, fluorescence polarization, FITC-GIV peptide, rat Galphai3; shares compounds with GIV-Gai inh; hits give low values; fluorescence polarization, mP at 100 µM; 580 compounds, 38% hits;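 active = inhibition score of 15 or more, meaning 100 minus mean polarization as percent of control over three replicates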;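 note: lower mP means peptide displaced from Galphai3 so more inhibition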
# GIV Gai AS conf: inhibitors of GIV binding to Galpha-i3, confirmation, orthogonal assay for GIV-Galpha-i inhibitor project, biochemical, AlphaScreen, His-GIV, GST-Galphai3. AlphaScreen counts at 100 µM. 580 compounds, 39% hits. purified proteins, 90 min; hits give low values. shares compounds with GIV-Gai inh;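 active = inhibition score at or above a set limit, where the score is 100 minus the three-replicate mean percent of control signal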
# Numbers without * were called inactive. Only a selection was taken, and hits are over-represented in it overall.
SMILES,GIV-Gai inh,others
c1cc(-c2nc3ccccc3o2)cc(-c2nc3ccccc3o2)c1,97.6,
Cc1cccc(-c2nc(Nc3c(F)cccc3F)c3ccccc3n2)c1,108.9,
CCN1C(=O)COc2ccc(-c3noc(C(C)NC(=O)c4ccccc4)n3)cc21 (stereo unspecified),104.1,
COC(=O)c1cc(S(=O)(=O)NCCC(=O)Nc2ccc(F)cc2F)cn1C,102.9,
CCCCCCNC(=O)c1c[nH]c2ccc(S(=O)(=O)N(C)c3ccc(Br)cc3)cc2c1=O,111.6,
CN(c1ccc(Br)cc1)S(=O)(=O)c1ccc2[nH]cc(C(=O)NCc3ccccn3)c(=O)c2c1,64.0*,GIV Gai FP conf=47.6*;GIV Gai AS conf=60749
CCCCCCCNC(=O)c1c[nH]c2ccc(S(=O)(=O)N(C)c3ccc(Br)cc3)cc2c1=O,101.1,
COc1ccc(C2=NOC(C(=O)N3CCCCC3)C2)cc1 (stereo unspecified),100.3,
Nc1nc(N)c2ncn(C3CC(O)C(CO)O3)c2n1 (stereo unspecified),103.7,
O=C(NC1CCCCC1)c1sc(=S)n2c1[nH]c(=O)c1ccccc12,100.5,
O=C(NCCc1ccccc1)c1sc(=S)n2c1[nH]c(=O)c1ccccc12,86.4,GIV Gai FP conf=65;GIV Gai AS conf=13551*
O=C(c1sc(=S)n2c1[nH]c(=O)c1ccccc12)N1CCCC1,106.6,
COc1ccc(CNC(=O)CN2C(=O)C(C)=C(c3ccc(C)cc3)S2(=O)=O)cc1,101.6,
Cc1cc(C)[n+]2c(C)csc2n1,105.4,
O=C(NCc1ccncc1)c1ccc(Oc2cc(Cl)cc(Cl)c2)o1,102.6,
COC(=O)c1c(-c2cccc(Cl)c2)noc1Nc1cc(Cl)c(OC)cc1OC,104.0,
O=C1c2cc(S(=O)(=O)N3CCCCCC3)cc([N+](=O)[O-])c2-c2c1cc(S(=O)(=O)N1CCCCCC1)cc2[N+](=O)[O-],114.4,
O=[N+]([O-])c1cc(S(=O)(=O)O)cc2c1-c1c(cc(S(=O)(=O)O)cc1[N+](=O)[O-])C2,86.1,GIV Gai FP conf=62.2;GIV Gai AS conf=17742*
O=C1c2cc(S(=O)(=O)N3CCCCC3)cc([N+](=O)[O-])c2-c2c1cc(S(=O)(=O)N1CCCCC1)cc2[N+](=O)[O-],109.4,
O=C1Nc2cc(S(=O)(=O)NC3CCCCC3)ccc2SCC1CC(=O)N1CCCC1 (stereo unspecified),98.3,
CC(C)CC(=O)Nc1ccc(SCc2nnc(-c3ccccc3)o2)cc1,106.3,
COC(=O)c1ccccc1NC(=O)COC(=O)c1ccn(C)n1,94.3,
COc1ccc2oc(-c3ccccc3)cc(=O)c2c1,104.4,
O=c1cc(-c2ccccc2)oc2ccc(Cl)cc12,103.2,
Nc1cc(N)c2cc(-c3ccccc3)oc2c1,81.0*,GIV Gai FP conf=66.1;GIV Gai AS conf=30925

# Filtered by structure: those above containing fluorine (two)
SMILES,GIV-Gai inh,others
Cc1cccc(-c2nc(Nc3c(F)cccc3F)c3ccccc3n2)c1,108.9,
COC(=O)c1cc(S(=O)(=O)NCCC(=O)Nc2ccc(F)cc2F)cn1C,102.9,

# Returning to the listing with the 3 entries that preceded the break.
SMILES,GIV-Gai inh,others
COc1ccc2oc(-c3ccccc3)cc(=O)c2c1,104.4,
O=c1cc(-c2ccccc2)oc2ccc(Cl)cc12,103.2,
Nc1cc(N)c2cc(-c3ccccc3)oc2c1,81.0*,GIV Gai FP conf=66.1;GIV Gai AS conf=30925
COCCNC(=O)C1CCN(C(=O)c2sccc2-n2cccc2)CC1,96.2,
COCCn1cnc2sc(C(=O)NC3CCCCC3)c(C)c2c1=O,109.8,
O=C(Nc1sc2c(c1C(=O)NCC1CCCO1)CCCC2)c1cc(=O)c2ccccc2o1 (stereo unspecified),101.0,
COC(=O)c1c(NC(=O)c2cc(=O)c3ccccc3o2)sc2c1CCCC2,125.3,GIV Gai FP conf=58.9;GIV Gai AS conf=43666
CCOCCCNC(=O)c1c(NC(=O)c2cc(=O)c3ccccc3o2)sc2c1CCC2,100.6,
O=C1CSC(N=Nc2c(O)[nH]c3ccccc23)=N1,110.4,
CC(C)(O)C(=O)N=Nc1c(O)[nH]c2ccccc12,103.3,
O=C1N=c2ccccc2=C1N=Nc1c(O)[nH]c2ccccc12,56.5*,GIV Gai FP conf=51.3*;GIV Gai AS conf=9884*
CCC(=O)Nc1ccc2nc(SCC(=O)Nc3ccc(C(C)=O)cc3)sc2c1,103.5,
CN(C)C(=S)N/N=C1\C(=O)C(c2ccccc2)(c2ccccc2)c2ccccc21,112.4,
COc1ccc(N2CCN(C(=S)c3ccccc3)CC2)cc1,108.0,
CCN1C(C)=C(C)S/C1=C1\SC(=S)N(C2CCCCC2)C1=O,94.2,GIV Gai FP conf=73;GIV Gai AS conf=44037
CCN1C(=O)/C(=C2\Sc3ccc(Cl)cc3N2C2CCCCC2)SC1=S,106.3,
CCN1C(C)=C(C)S/C1=C1\SC(=S)N(NC(C)=O)C1=O,106.3,
CCOc1ccc(C(=O)/C=C(/Nc2cccc(C)c2)C(=O)O)cc1,106.4,
CCCOC(=O)c1sc2nc3c(c(-c4cccs4)c2c1N)CCC3,101.3,
Cn1c(=O)c(C(=O)CS(=O)(=O)O)c2c3c(cccc31)C(=O)c1ccccc1-2,55.3*,GIV Gai FP conf=22.4*;GIV Gai AS conf=7785*
Cn1c(=O)c(C(=O)c2cccc(S(=O)(=O)O)c2)c2c3c(c(Br)ccc31)C(=O)c1ccccc1-2,99.8,
Cn1c(=O)c(-c2ccccc2)c2c3c(cccc31)C(=O)c1ccccc1-2,109.7,

# Bioassay records deposited in PubChem BioAssay by ICCB-Longwood Screening Facility, Harvard Medical School.
